Assay results taken from PMC4269221 (Cell reports, 2014).
Entries after “also recorded” stand apart in the source; their conditions may differ.

Protein sequences, listed by entry. Tags and fused reporters are not part of them.
UniProt Q00987, whole entry: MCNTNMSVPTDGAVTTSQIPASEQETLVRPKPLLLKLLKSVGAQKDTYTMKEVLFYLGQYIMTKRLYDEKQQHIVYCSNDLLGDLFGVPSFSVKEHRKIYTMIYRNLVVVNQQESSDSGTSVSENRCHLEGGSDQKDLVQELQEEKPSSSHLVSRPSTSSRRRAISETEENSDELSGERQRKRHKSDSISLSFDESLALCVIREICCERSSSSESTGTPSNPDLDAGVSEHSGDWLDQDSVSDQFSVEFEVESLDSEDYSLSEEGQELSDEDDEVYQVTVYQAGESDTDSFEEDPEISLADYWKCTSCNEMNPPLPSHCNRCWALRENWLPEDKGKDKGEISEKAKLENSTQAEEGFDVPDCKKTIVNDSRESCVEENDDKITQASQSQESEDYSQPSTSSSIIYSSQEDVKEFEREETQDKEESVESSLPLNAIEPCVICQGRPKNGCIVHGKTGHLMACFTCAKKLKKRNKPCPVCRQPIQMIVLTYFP

Columns and labels:
Mdm2 = details: ref Graves et al., 2012; cited from earlier work
[1] = target: p53-Mdm2 complexes in Saos-2 p53-Mdm2 ReBiL cells (Homo sapiens, UniProt Q00987); assay: Real-time BiLC; assay type: cell-based

Structure (SMILES): COc1ccc(C2=N[C@@H](c3ccc(Cl)cc3)[C@@H](c3ccc(Cl)cc3)N2C(=O)N2CCNC(=O)C2)c(OC(C)C)c1 [Nutlin-3a]
- Mdm2 binding affinity (Mdm2): 18.7 nM
- p53-Mdm2 BiLC signal (newly synthesized complexes) ([1]; doxycycline 500 ng/ml and compound added at Time = 0, 10 μM, 24 hr, 37 °C): reduced
- time to reach full p53-Mdm2 inhibition ([1]; pre-induced Saos-2 p53-Mdm2 ReBiL cells, 10% FBS, 37 °C (Figure 4A)): 20 min
- disruption of preformed p53-Mdm2 complexes in living cells ([1]; pre-induced cells, doxycycline withdrawal, 10% FBS media, 37 °C): dose dependently reduced; also recorded: disrupts
